Assay: Selectivity ratio of I50 for Oryza sativa to I50 for Echinochloa oryzicola by hydroponics test

`COC(=O)C1(c2ccccc2)C(=O)N(C(C)(C)c2cc(Cl)cc(Cl)c2)C=C1C` (configuration not stated) gave a Selectivity ratio of 104.
Work on `CC1=C(c2ccccc2)C(=O)N(C(C)(C)c2cc(Cl)cc(Cl)c2)C1` yielded a Selectivity ratio of 10.

Reference: ChEMBL document CHEMBL3045932, “Involvement of Esterase in Phytotoxicity of a New Pyrrolinone Compound, Methyl 1-[1-(3,5-Dichlorophenyl)-1-methylethyl]-2,3-dihydro-4-methyl-2-oxo-3-phenyl-1H-pyrrole-3-carboxylate, to Early Watergrass (Echinochloa oryzicola) and Rice (Oryza sativa)” (J Pestic Sci, 2005)
